{"sequences": {"note": "Sequences of proteins named here, by UniProt entry; tags and fusion partners are left off. A change or cut given only in a name is not applied to a line headed by its entry.", "UniProt Q02153": "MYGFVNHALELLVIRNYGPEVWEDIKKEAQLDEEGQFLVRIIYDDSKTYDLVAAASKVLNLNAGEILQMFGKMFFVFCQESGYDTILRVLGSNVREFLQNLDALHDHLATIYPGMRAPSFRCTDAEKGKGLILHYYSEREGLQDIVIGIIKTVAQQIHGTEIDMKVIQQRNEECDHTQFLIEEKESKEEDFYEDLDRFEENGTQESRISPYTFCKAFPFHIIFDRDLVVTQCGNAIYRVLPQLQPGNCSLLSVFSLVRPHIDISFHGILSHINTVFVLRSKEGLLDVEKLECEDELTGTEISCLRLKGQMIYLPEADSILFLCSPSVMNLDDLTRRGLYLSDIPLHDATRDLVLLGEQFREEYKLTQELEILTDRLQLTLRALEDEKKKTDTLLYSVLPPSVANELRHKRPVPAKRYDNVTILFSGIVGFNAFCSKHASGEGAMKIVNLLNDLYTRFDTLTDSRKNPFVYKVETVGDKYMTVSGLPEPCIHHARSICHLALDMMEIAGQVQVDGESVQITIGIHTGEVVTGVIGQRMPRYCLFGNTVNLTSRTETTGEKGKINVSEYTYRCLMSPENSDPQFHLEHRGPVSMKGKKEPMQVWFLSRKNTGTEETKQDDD", "UniProt Q02108": "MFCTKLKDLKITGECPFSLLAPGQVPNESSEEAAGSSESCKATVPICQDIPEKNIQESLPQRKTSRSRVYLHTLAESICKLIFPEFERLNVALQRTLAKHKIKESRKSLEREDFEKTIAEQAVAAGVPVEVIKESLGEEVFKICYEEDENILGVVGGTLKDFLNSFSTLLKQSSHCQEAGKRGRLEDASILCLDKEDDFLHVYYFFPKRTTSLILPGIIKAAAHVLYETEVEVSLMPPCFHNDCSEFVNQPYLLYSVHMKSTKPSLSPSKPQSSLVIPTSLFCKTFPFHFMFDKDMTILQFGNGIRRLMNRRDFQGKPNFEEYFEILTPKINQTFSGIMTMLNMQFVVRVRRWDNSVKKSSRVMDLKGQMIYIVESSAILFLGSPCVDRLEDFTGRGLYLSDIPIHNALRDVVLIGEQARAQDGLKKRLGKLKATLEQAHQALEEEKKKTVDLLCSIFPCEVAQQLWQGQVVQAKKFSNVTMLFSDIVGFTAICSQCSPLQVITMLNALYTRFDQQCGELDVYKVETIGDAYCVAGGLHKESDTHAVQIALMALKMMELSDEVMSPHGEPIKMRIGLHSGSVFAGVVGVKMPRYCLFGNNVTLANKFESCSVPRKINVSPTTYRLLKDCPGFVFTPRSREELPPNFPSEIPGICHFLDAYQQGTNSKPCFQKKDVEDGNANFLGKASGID"}, "source": "ChEMBL document CHEMBL3112547", "about": "“Surface plasmon resonance using the catalytic domain of soluble guanylate cyclase allows the detection of enzyme activators” (Bioorg Med Chem Lett, 2014)", "key": {"[1]": {"target": "T1, Soluble guanylate cyclase alpha1/beta1 complex (Homo sapiens) (UniProt Q02153+Q02108)", "experiment": "Binding affinity to sGC subunit alpha-1/beta-1 catalytic domain (unknown origin) at 100 uM after 30 seconds by SPR analysis", "format": "protein-complex assay", "method_in_brief": "(§1)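 Catalytic-domain α1β1 construct, buffer-exchanged to HEPES pH 7.5/300 mM NaCl/5% glycerol, amine-coupled (30 μg/mL, acetate pH 5.5, 1 mM ATP, 1 mM GTP, 3 mM MgCl2, 1 mM DTT). Compounds at 100 μM in DMSO-containing running buffer, 25 °C. Injection and dissociation 30 s each, triplicate. Responses double-referenced, DMSO-corrected, control subtracted; occupancy is the fraction of immobilised sites bound, assuming 1:1 stoichiometry.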"}, "[2]": {"target": "T1, Soluble guanylate cyclase alpha1/beta1 complex (Homo sapiens)", "conditions": "100 uM"}, "[3]": {"target": "T1, Soluble guanylate cyclase alpha1/beta1 complex (Homo sapiens)", "experiment": "Binding affinity to full-length human recombinant sGC subunit alpha-1/beta-1 at 100 uM after 30 seconds by SPR analysis", "format": "protein-complex assay", "method_in_brief": "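Full-length enzyme amine-coupled to CM5 chip at 50 μg/mL in sodium acetate pH 4.5 with 1 mM DTT, 2 mM ATP, 3 mM MgCl2; reference cell blank-immobilised. Compounds at 100 μM in running buffer (10 mM HEPES pH 7.4, 150 mM NaCl, 3 mM EDTA, 0.05% P20, 1 mM DTT, 10 mM MgCl2, 5% DMSO), 25 °C. Injection and dissociation 30 s each, triplicate.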"}, "[4]": {"target": "T1, Soluble guanylate cyclase alpha1/beta1 complex (Homo sapiens)", "experiment": "Activation of human recombinant sGC subunit alpha-1/beta-1 using GTP as substrate assessed as cGMP production measured per ng of protein at 100 uM treated prior to DEA/NO addition measured after 2 mins by radioimmunoassay in presence of Mg2+", "format": "protein-complex assay"}, "[5]": {"target": "T1, Soluble guanylate cyclase alpha1/beta1 complex (Homo sapiens)", "experiment": "Binding affinity to sGC subunit alpha-1/beta-1 catalytic domain (unknown origin) assessed as occupancy relative to control", "format": "protein-complex assay", "method_in_brief": "as §1"}}, "note": "The source made the active and inactive calls. The rule behind the calls is not given here."}
{"compound": "OCc1ccc(-c2nn(Cc3ccccc3)c3ccccc23)o1", "values": [{"measurement": "RU", "setting": "[1]", "result": 7.1}, {"measurement": "RU", "setting": "[2]", "result": 18.4}, {"measurement": "Activity", "setting": "[3]", "result": "Active"}, {"measurement": "Activity", "setting": "[4]", "result": 22.7, "unit": "pmol"}, {"measurement": "Occ", "setting": "[5]", "result": 85, "unit": "%"}]}
